Values joined by “and” are separate entries in the source; they are usually repeats but may differ in a detail not shown here. Identical values can stand only once. The entries are a selection whose mix differs from that of the whole data set. Inconclusive results are not listed. Active and inactive are the calls of the source. The call rests on the fitted dose curve; in most records, active means well fitted inhibition curve with a large enough effect; inconclusive means small, poorly fitted or top-dose-only effect, or another doubt; inactive means no such curve, though single readings can be large or run the other way.
On the % scale 0 is the no-effect control and ±100 the full control effect.

Sequences of proteins named here, by UniProt entry; tags and fusion partners are left off.
UniProt Q92830, whole entry: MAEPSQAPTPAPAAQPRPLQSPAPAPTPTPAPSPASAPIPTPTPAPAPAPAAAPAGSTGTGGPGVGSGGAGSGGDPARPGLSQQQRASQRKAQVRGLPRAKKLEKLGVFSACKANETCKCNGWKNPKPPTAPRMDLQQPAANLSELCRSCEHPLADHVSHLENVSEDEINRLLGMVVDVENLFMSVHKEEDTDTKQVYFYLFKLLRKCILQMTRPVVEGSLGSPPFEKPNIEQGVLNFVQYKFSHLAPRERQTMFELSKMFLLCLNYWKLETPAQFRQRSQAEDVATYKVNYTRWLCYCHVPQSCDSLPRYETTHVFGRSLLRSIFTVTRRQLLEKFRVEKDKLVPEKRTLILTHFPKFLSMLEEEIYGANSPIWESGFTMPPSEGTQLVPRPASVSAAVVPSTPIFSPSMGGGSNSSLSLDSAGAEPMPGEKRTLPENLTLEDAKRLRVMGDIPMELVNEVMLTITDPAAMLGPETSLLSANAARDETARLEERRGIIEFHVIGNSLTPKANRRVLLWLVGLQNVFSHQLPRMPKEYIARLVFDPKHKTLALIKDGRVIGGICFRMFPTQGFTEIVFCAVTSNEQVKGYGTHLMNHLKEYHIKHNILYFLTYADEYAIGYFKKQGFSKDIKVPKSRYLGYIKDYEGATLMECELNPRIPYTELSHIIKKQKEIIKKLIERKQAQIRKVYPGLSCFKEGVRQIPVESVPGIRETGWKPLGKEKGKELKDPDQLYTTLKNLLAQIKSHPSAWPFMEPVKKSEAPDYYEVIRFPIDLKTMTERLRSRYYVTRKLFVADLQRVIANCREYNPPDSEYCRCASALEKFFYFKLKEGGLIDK

For the test, the target named is Histone acetyltransferase KAT2A (Homo sapiens) (UniProt Q92830). The test can be described thus: qHTS Assay for Inhibitors of GCN5L2. Particulars: GCN5L2 HAT assay, ThioGlo1 CoA-SH fluorescence; at 58.9 µM (top of the series) unless noted. For orientation: Quantitative high-throughput screening tests each substance at several concentrations.
For the compound `COc1ccccc1OP(C)(=O)Nc1ccccc1` (stereo not given), the activity change, negative = inhibition is inactive: -3.64%.

Regarding `CP(=O)(Nc1ccccc1Br)Oc1ccccc1` (stereo not given), the activity change, negative = inhibition was inactive: -9.03%.

`CP(=S)(Nn1cnnc1)Oc1ccccc1` (stereo not given): the activity change, negative = inhibition is inactive: 3.31%.

For `Cc1cc(C)cc(OP(C)(=O)Nc2ccc(SC(F)(F)F)cc2)c1` (stereo not given), the activity change, negative = inhibition is inactive: -11.7%.

With `CCc1ccc(OP(C)(=O)N2CCN(c3ccc([N+](=O)[O-])cc3)CC2)cc1` (stereo not given), the activity change, negative = inhibition was inactive: -0.177%.

Take `CP(=O)(NC(=O)Nc1ccccc1)Oc1ccccc1` (stereo not given): the activity change, negative = inhibition was inactive: -1.44%.

For the compound `CP(=O)(Oc1ccccc1)OC(c1ccccc1)C(F)(F)F` (stereo not given), the activity change, negative = inhibition is inactive: -3.89%.

In the case of `Cc1cccc(C)c1OP(C)(=O)Nc1ccc(SC(F)(F)F)cc1` (stereo not given), the activity change, negative = inhibition was inactive: -7.61%.

Turning to `CP(=O)(Nc1ccc(SC(F)(F)F)cc1)Oc1ccc(Cl)cc1` (stereo not given), the activity change, negative = inhibition is inactive: -3.87%.

Consider `CCOP(C)(=S)SCC(=O)NC(C)C(=O)O` (stereo not given), for which the activity change, negative = inhibition was inactive: -1.28%.

As for `CN(C)CCS`, the activity change, negative = inhibition was inactive: 0.892%.

Take `CCOC(=O)c1ccc(NP(C)(=O)Oc2ccc(OC)cc2)cc1` (stereo not given): the activity change, negative = inhibition was inactive: -12.8%.

Regarding `CCN(CC)CCCOC(=O)C(O)(c1ccccc1)c1ccccc1`, the activity change, negative = inhibition was inactive: 0.879%.

Take `O=[N+]([O-])[O-].[NH4+]`: the activity change, negative = inhibition was inactive: 17.8%.

Take `O=C(O)C(O)(c1ccccc1)c1ccccc1`: the activity change, negative = inhibition is inactive: 0%.

For `Cc1cccc(C)c1OP(C)(N)=O` (stereo not given), the activity change, negative = inhibition was inactive: -20.6%.

In the case of `CC(C)(C)c1ccc(OP(C)(=O)Nc2ccc(SC(F)(F)F)cc2)cc1` (stereo not given), the activity change, negative = inhibition was inactive: -18.9%.

Regarding `O=[N+]([O-])c1ccc2c(c1)C=Nc1ccccc1O2`, the activity change, negative = inhibition is inactive: -7.54%.

For the compound `O=[N+]([O-])c1cc([N+](=O)[O-])c(Nc2cccnc2)c([N+](=O)[O-])c1`, the activity change, negative = inhibition is inactive: -2.67%.

Turning to `O=C(O)C1(O)c2ccccc2-c2ccccc21`, the activity change, negative = inhibition is inactive: 0.556%.

Take `COc1ccc(OP(C)(=O)Nc2cccc(F)c2)cc1` (stereo not given): the activity change, negative = inhibition is inactive: 0%.

In the case of `COc1ccccc1OP(C)(=O)Nc1cc(Cl)ccc1C` (stereo not given), the activity change, negative = inhibition is inactive: 5.57%.

`CCOC(=O)c1ccc(NP(C)(=O)Oc2ccccc2)cc1` (stereo not given): the activity change, negative = inhibition was inactive: 0.82%.

For `Cc1ccc(NP(C)(=O)Oc2ccccc2)c(C)c1` (stereo not given), the activity change, negative = inhibition is inactive: -6.32%.

On to `COc1ccccc1OP(C)(=O)Nc1ccc(C)cc1` (stereo not given), for which the activity change, negative = inhibition was inactive: -2.77%.

`O=[N+]([O-])c1cccc([N+](=O)[O-])c1`: the activity change, negative = inhibition is inactive: 13.6%.

Turning to `O=[N+]([O-])OCC(CO[N+](=O)[O-])(CO[N+](=O)[O-])CO[N+](=O)[O-]`, the activity change, negative = inhibition is inactive: 1.1%.

For `CC1=NCCc2c1[nH]c1ccccc21.O=[N+]([O-])c1cc([N+](=O)[O-])c(O)c([N+](=O)[O-])c1`, the activity change, negative = inhibition was inactive: -13.1%.

With `Cc1cc(C)cc(OP(C)(=O)Nc2ccc(C)cc2C)c1` (stereo not given), the activity change, negative = inhibition is inactive: -11.6% [at 0.501 µM].

As for `CCOC(=O)c1ccc(NP(C)(=O)Oc2cc(C)cc(C)c2)cc1` (stereo not given), the activity change, negative = inhibition was inactive: -2.11%.

As to `CP(=O)(Nc1cccc(Br)c1)Oc1ccccc1` (stereo not given), the activity change, negative = inhibition was inactive: -5.99%.

Regarding `Cc1cc(C)cc(OP(C)(=O)Nc2ccccn2)c1` (stereo not given), the activity change, negative = inhibition was inactive: -1.15%.

Take `Cc1ccc(C)c(NP(C)(=O)Oc2ccccc2)c1` (stereo not given): the activity change, negative = inhibition is inactive: -3.94%.

Consider `O=[N+]([O-])c1cc([N+](=O)[O-])c(-n2nnc3ccccc32)c([N+](=O)[O-])c1`, for which the activity change, negative = inhibition was inactive: -14.4%.

As to `Cc1nc2ccc3ccccc3c2s1.O=[N+]([O-])c1cc([N+](=O)[O-])c(O)c([N+](=O)[O-])c1`, the activity change, negative = inhibition is inactive: -18.4%.

Turning to `O=[N+]([O-])c1cc([N+](=O)[O-])c(Nc2nnnn2CCO)c([N+](=O)[O-])c1`, the activity change, negative = inhibition was inactive: -8.38%.

As to `CC1=C2N=C(C=C3N=C(C(C)=C4[N-][C@@](C)([C@@H]5N=C1[C@](C)(CCC(=O)NC[C@@H](C)OP(=O)([O-])O[C@H]1[C@@H](O)[C@@H](n6cnc7cc(C)c(C)cc76)O[C@@H]1CO)[C@H]5CC(N)=O)[C@@](C)(CC(N)=O)[C@@H]4CCC(N)=O)[C@@](C)(CC(N)=O)[C@@H]3CCC(N)=O)C(C)(C)[C@@H]2CCC(N)=O.[C-]#N.[Co+3]`, the activity change, negative = inhibition is inactive: -9.32%.

As for `CP(=O)(Nc1ccc(SC(F)(F)F)cc1)Oc1ccccc1` (stereo not given), the activity change, negative = inhibition is inactive: -2.78%.

`CCCOc1ccc(NP(C)(=O)Oc2ccc(Cl)cc2)cc1` (stereo not given): the activity change, negative = inhibition was inactive: -6.61%.

For the compound `OCCN(CCO)CCO`, the activity change, negative = inhibition was inactive: 14.5% and inactive: 38.6%.

For the compound `COc1ccccc1OP(C)(=O)Nc1c(C)cccc1C` (stereo not given), the activity change, negative = inhibition is inactive: -7.61%.

Take `CN1CCCCC1COC(=O)C1(O)c2ccccc2CCc2ccccc21` (stereo not given): the activity change, negative = inhibition is inactive: -2.95%.

With `COc1ccc(NP(C)(=O)Oc2ccccc2OC)cc1` (stereo not given), the activity change, negative = inhibition is inactive: -6.92%.

On to `CN(C)CCOC(=O)C(O)(c1ccccc1)C1CCCCC1` (stereo not given), for which the activity change, negative = inhibition was inactive: -2.5%.

Consider `COc1ccc(OP(C)(=O)Nc2cccc(Br)c2)cc1` (stereo not given), for which the activity change, negative = inhibition was inactive: -5.55%.

Take `Cc1cc(-c2cccc3ccccc23)c(C)cn1.O=[N+]([O-])c1cc([N+](=O)[O-])c(O)c([N+](=O)[O-])c1`: the activity change, negative = inhibition was inactive: -17.7%.

On to `O=[N+]([O-])c1ccc(OP2(=O)COCCO2)cc1` (stereo not given), for which the activity change, negative = inhibition was inactive: 2.48%.

On to `CCOP(C)(=S)SCC(=O)NC(C)(CC)C(=O)O` (stereo not given), for which the activity change, negative = inhibition was inactive: -4.42%.

On to `CP(=O)(Nc1ccc(SC(F)(F)F)cc1)Oc1ccc(F)cc1` (stereo not given), for which the activity change, negative = inhibition was inactive: 0.317%.

In the case of `CCN(CCCl)Cc1ccccc1C`, the activity change, negative = inhibition was inactive: 0.765%.

Turning to `Cc1ccccc1NP(C)(=O)Nc1ccccc1C`, the activity change, negative = inhibition is inactive: -5.96%.

As for `CP(=O)(Nc1ccc2c(c1)OCCO2)Oc1ccccc1` (stereo not given), the activity change, negative = inhibition was inactive: -2.63%.

On to `CC(C)c1ccc(OP(C)(=O)Nc2ccc(SC(F)(F)F)cc2)cc1` (stereo not given), for which the activity change, negative = inhibition was inactive: -21.1%.

Take `CP(=O)(Nc1ccccc1F)Oc1ccccc1` (stereo not given): the activity change, negative = inhibition was inactive: 1.66%.

On to `COc1ccc(OP(C)(=O)Nc2ccc(SC(F)(F)F)cc2)cc1` (stereo not given), for which the activity change, negative = inhibition is inactive: -19.5%.

Take `CCOC(=O)c1ccc(NP(C)(=O)Oc2ccc(F)cc2)cc1` (stereo not given): the activity change, negative = inhibition is inactive: -2.23%.

For the compound `CCCCCOc1ccc(NP(C)(=O)Oc2ccc(Cl)cc2Cl)cc1` (stereo not given), the activity change, negative = inhibition is inactive: -17.5%.

Regarding `CP(=O)(Nc1ccccc1)Oc1ccc(F)cc1` (stereo not given), the activity change, negative = inhibition is inactive: -15.9%.

Turning to `CCN(CC)CCCOC(=O)C(O)(c1ccccc1)C1CCCCC1` (stereo not given), the activity change, negative = inhibition is inactive: -3.38%.

Take `COc1ccc(OP(C)(=O)Nc2ccccc2Br)cc1` (stereo not given): the activity change, negative = inhibition was inactive: -4.83%.

The record behind these values is PubChem BioAssay AID504327 (National Center for Advancing Translational Sciences (NCATS), 2011).
